Test results reported in patent US20250163160A1 (Amgen, published 2025).

Sequences of proteins named here, by UniProt entry; tags and fusion partners are left off. A line that says so, or that is headed by a name, gives the form on record, which may keep a tag or linker. Residues count along the entry.
UniProt P11362, 22-822 limits assumed, form in doubt, chain 1 of 2: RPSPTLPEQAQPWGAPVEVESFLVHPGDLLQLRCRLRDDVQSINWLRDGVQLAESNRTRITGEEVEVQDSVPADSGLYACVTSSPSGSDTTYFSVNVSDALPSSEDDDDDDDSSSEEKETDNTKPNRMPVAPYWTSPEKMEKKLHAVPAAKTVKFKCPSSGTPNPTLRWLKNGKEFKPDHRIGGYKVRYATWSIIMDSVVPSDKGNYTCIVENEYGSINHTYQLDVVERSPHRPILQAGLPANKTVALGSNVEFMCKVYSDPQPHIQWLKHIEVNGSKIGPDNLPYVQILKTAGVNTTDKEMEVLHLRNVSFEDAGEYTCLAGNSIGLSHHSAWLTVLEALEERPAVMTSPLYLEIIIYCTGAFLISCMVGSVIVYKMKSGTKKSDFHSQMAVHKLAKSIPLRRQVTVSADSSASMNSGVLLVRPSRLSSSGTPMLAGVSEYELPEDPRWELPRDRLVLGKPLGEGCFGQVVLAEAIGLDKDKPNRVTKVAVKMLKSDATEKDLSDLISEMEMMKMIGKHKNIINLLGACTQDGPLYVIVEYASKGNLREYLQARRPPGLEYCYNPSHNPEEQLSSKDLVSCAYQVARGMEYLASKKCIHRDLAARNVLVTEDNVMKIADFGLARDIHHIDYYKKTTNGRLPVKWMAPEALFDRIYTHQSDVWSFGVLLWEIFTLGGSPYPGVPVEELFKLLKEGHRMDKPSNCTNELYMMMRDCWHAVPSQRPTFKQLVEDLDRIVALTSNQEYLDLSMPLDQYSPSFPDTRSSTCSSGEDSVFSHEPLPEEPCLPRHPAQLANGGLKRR

Key:
[1] = molecular target: T1, human FGF21 receptor (FGF21R): full length human FGFR1c and full length human β-Klotho co-expressed on cells (human, UniProt P11362; Q86Z14); assay: cell-based or functional assay
[2] = molecular target: T1, human FGF21 receptor (FGF21R): full …; assay: cell-based or functional assay; remark: listed apart in the source

Binder	EC50 (read off the curve); luciferase reporter (RLU) in AM-1/D FGFR1c+β-Klotho Luc cells, 16H7 alone (0 nM 39F11) [1] [nM]	EC50 (nM), Erk-phosphorylation, human adipocyte assay [2] [nM]
16H7 (antibody, human IgG2, lambda) heavy: QVTLKESGPVLVKPTETLTLTCTVSGFSLNNARMGVSWIRQPPGKALEWLAHIFSNDEKSYSTSLKSRLTISKDTSKSQVVLIMTNMDPVDTATYYCARSVVTGGYYYDGMDVWGQGTTVTVSSASTKGPSVFPLAPCSRSTSESTAALGCLVKDYFPEPVTVSWNSGALTSGVHTFPAVLQSSGLYSLSSVVTVPSSNFGTQTYTCNVDHKPSNTKVDKTVERKCCVECPPCPAPPVAGPSVFLFPPKPKDTLMISRTPEVTCVVVDVSHEDPEVQFNWYVDGVEVHNAKTKPREEQFNSTFRVVSVLTVVHQDWLNGKEYKCKVSNKGLPAPIEKTISKTKGQPREPQVYTLPPSREEMTKNQVSLTCLVKGFYPSDIAVEWESNGQPENNYKTTPPMLDSDGSFFLYSKLTVDKSRWQQGNVFSCSVMHEALHNHYTQKSLSLSPGK light: SYVLTQPPSVSVAPGQTARITCGGNNIGSESVHWYQQKPGQAPVLVVYDDSDRPSGIPERFSGSNSGNTATLTISRVEAGDEADYYCQVWDGNSDHVVFGGGTKLTVLGQPKANPTVTLFPPSSEELQANKATLVCLISDFYPGAVTVAWKADGSPVKAGVETTKPSKQSNNKYAASSYLSLTPEQWKSHRSYSCQVTHEGSTVEKTVAPTECS	~3	
16H7 variant, heavy chain H3, light chain Q16K (antibody, human IgG2, lambda) heavy: QVTLKESGPVLVKPTETLTLTCTVSGFSLNNARMGVSWIRQPPGKALEWLAHIFSNDEKSYSTSLKSRLTISKDTSKSQVVLIMTNMDPVDTATYYCARSVVTGGYYYDGMDVWGQGTTVTVSSASTKGPSVFPLAPCSRSTSESTAALGCLVKDYFPEPVTVSWNSGALTSGVHTFPAVLQSSGLYSLSSVVTVPSSNFGTQTYTCNVDHKPSNTKVDKTVERKCCVECPPCPAPPVAGPSVFLFPPKPKDTLMISRTPEVTCVVVDVSHEDPEVQFNWYVDGVEVHNAKTKPREEQFNSTFRVVSVLTVVHQDWLNGKEYKCKVSNKGLPAPIEKTISKTKGQPREPQVYTLPPSREEMTKNQVSLTCLVKGFYPSDIAVEWESNGQPENNYKTTPPMLDSDGSFFLYSKLTVDKSRWQQGNVFSCSVMHEALHNHYTQKSLSLSPGK light: SYVLTQPPSVSVAPGKTARITCGGNNIGSESVHWYQQKPGQAPVLVVYDDSDRPSGIPERFSGSNSGNTATLTISRVEAGDEADYYCQVWDGNSDHVVFGGGTKLTVLGQPKANPTVTLFPPSSEELQANKATLVCLISDFYPGAVTVAWKADGSPVKAGVETTKPSKQSNNKYAASSYLSLTPEQWKSHRSYSCQVTHEGSTVEKTVAPTECS		0.11
